Earlier results in publication PMC4518026 (Journal of controlled release : official journal of the …, 2014).

How the values were obtained:
hindlimb ischemia = conditions: mouse, in vivo; cited from earlier work
[1] = mice; ref [19]; cited from earlier work

vascular endothelial growth factor [VEGF]
vascular effect of bolus VEGF, in words (hindlimb ischemia): leaky and aberrant vessels and off-target effects
in vivo circulating half-life [1]: three
